Experimental data from ChEMBL document CHEMBL2010681, “Synthesis and SAR study of 4-arylpiperidines and 4-aryl-1,2,3,6-tetrahydropyridines as 5-HT₂C agonists” (Bioorg Med Chem Lett, 2012).

Amino acid sequences for entries named in this document (tags omitted). A change or cut given only in a name is not applied to a line headed by its entry.
UniProt P28335: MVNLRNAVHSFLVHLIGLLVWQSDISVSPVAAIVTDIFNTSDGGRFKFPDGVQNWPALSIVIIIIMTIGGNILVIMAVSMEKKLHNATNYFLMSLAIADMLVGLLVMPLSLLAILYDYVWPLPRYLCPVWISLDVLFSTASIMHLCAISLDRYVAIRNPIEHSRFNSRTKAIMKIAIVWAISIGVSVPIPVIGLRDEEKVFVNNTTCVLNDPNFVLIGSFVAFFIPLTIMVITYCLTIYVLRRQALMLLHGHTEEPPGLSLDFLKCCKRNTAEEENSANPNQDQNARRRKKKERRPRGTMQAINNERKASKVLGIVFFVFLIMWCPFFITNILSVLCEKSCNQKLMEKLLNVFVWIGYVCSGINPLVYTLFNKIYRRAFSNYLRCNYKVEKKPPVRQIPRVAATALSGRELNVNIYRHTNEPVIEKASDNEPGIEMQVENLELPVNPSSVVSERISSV

How the values were obtained:
[1] = biological target: T1, 5-hydroxytryptamine receptor 2C (Homo sapiens, UniProt P28335); assay: Displacement of [3H]-mesulergine from 5HT2C receptor expressed in CHO cell membranes at 1 uM after 90 mins by scintillation counting
[2] = biological target: T1, 5-hydroxytryptamine receptor 2C; assay: Displacement of [3H]-mesulergine from 5HT2C receptor expressed in CHO cell membranes at 10 uM after 90 mins by scintillation counting

CN(C)c1ccc(C2CCNCC2)cc1.Cl
inhibition [1]: 7% | inhibition [2]: 16%

Cl.Clc1ccc(C2CCNCC2)cc1
inhibition [1]: 3% | inhibition [2]: 26%

Cl.Fc1ccc(C2CCNCC2)cc1
inhibition [1]: 4% | inhibition [2]: 18%

O=C(O)C(F)(F)F.c1cc2c(c(C3CCNCC3)c1)CCCC2
inhibition [1]: 91% | inhibition [2]: 98%

Cl.FC(F)(F)c1ccccc1C1CCNCC1
inhibition [1]: 40% | inhibition [2]: 85%

Cl.Oc1cccc(C2CCNCC2)c1
inhibition [1]: 0% | inhibition [2]: 11%

Cc1cccc(C2CCNCC2)c1C.Cl
inhibition [1]: 31% | inhibition [2]: 82%

O=C(O)C(F)(F)F.c1ccc2c(C3CCNCC3)cccc2c1
inhibition [1]: 90% | inhibition [2]: 98%

COc1cccc(C2CCNCC2)c1.Cl
inhibition [1]: 5% | inhibition [2]: 47%

Cl.FC(F)(F)c1ccc(C2CCNCC2)cc1
inhibition [1]: 16% | inhibition [2]: 37%
